Legend:
[1] = target: Kappa-type opioid receptor (Cavia porcellus) (UniProt P41144); assay: [35S]GTP-gamma-S, induced maximal stimulation ( E max )against Kappa opioid receptor in guinea pig caudate membranes blocked with 6 nM nor-BNI
[2] = target: Mu-type opioid receptor (Cavia porcellus) (UniProt P97266); assay: [35S]GTP-gamma-S, induced maximal stimulation ( E max ) against Mu opioid receptor in guinea pig caudate membranes blocked with 6000 nM CTAP
[3] = target: Mu-type opioid receptor (Cavia porcellus) (UniProt P97266); assay: [35S]GTP-gamma-S, induced maximal stimulation ( E max )against Mu opioid receptor in guinea pig caudate membranes in unblocked condition
[4] = target: Opioid receptors; mu & delta (Homo sapiens) (UniProt P41143+P35372); assay: Ratio of binding affinities (Mu/Delta)

The chains behind the UniProt entries cited, without tags or fusion partners.
UniProt P41144, whole entry: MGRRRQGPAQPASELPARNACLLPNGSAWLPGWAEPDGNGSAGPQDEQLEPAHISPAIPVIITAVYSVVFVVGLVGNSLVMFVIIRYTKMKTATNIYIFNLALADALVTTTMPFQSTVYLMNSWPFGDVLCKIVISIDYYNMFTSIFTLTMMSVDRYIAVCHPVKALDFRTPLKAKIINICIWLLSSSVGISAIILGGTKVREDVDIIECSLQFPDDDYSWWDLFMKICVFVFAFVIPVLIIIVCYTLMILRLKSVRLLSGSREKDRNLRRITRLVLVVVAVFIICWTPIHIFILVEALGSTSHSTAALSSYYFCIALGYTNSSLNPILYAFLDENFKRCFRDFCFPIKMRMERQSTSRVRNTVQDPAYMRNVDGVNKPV
UniProt P97266, whole entry: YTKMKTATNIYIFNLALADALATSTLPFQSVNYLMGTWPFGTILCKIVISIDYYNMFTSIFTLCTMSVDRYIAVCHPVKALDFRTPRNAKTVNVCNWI

Structure (SMILES) | Emax [1] | Emax [2] | Emax [3] | Ratio [4]
C=CCN1CCC(N(c2ccccc2)c2ccc(C(=O)N(CC)CC)cc2)C(C)C1 (centres undefined) | 60 nM | 55 nM | 63 nM | 102
C=CCN1CC[C@H](N(c2ccccc2)c2ccc(C(=O)N(CC)CC)cc2)[C@H](C)C1 | 91 nM | 85 nM | 126 nM | 470
C=CCN1CC[C@@H](N(c2ccccc2)c2ccc(C(=O)N(CC)CC)cc2)[C@@H](C)C1 | – | – | – | > 72

— ChEMBL document CHEMBL1131897
